Earlier results on 1 substance are cited in paper PMC4439582 (Immunity, 2015).

The chains behind the UniProt entries cited, without tags or fusion partners. Residues count along the entry.
UniProt P01589, 22-240, chain 1 of 3: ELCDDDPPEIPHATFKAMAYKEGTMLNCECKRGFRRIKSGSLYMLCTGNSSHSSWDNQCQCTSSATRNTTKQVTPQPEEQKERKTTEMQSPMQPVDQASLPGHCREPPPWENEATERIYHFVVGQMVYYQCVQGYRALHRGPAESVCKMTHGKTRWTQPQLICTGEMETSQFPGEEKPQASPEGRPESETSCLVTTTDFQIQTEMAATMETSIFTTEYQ
UniProt P60568, 21-153: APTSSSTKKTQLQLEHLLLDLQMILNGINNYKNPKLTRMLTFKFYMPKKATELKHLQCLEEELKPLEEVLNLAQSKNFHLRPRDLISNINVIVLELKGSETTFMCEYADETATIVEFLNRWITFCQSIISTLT

In the data set the target is IL-2Rα/IL-2Rβ/IL-2Rγ (Homo sapiens) (UniProt P01589). The settings on record: cited from earlier work.

Consider IL-2 (from UniProt P60568), for which the Kd is 0.01 nM.

By Kd is commonly meant the equilibrium constant for the complex coming apart.
